Measured values as given in EP4684807A1, “LINKER AND USE THEREOF IN LIGAND DRUG CONJUGATE” (priority 2023, dated 2024).

Assay: Plasma stability test, drug-to-antibody ratio by LC-MS
Assay type: in vitro ADME
Conditions: human plasma, 37°C
Procedure: Antibody-drug conjugates were captured by immobilized magnetic beads
The beads were eluted with 200 µL of PBS buffer, then treated with 80 µL of biotin-labeled antigen protein and another 100 µL of PBS buffer at room temperature for 120 minutes. […] The supernatant was then removed.

B1: ADC-1D-1 (conjugate)
heavy: QVQLQQPGTEVVKPGASVKLSCKASGFTFPLYWMHWVRQRPGRGLEWIGRIIPIFGHTKYNEKFKNKATLTADESSSTAYMELRSLTSDDSAVYYCARGGYYYYPREGFLDYWGQGTSVTVSSASTKGPSVFPLAPSSKSTSGGTAALGCLVKDYFPEPVTVSWNSGALTSGVHTFPAVLQSSGLYSLSSVVTVPSSSLGTQTYICNVNHKPSNTKVDKKV[not shown - human IgG1 Fc]
light: DIVMTQSPASLSVSPGERASISCRSSQSVDYSGDSYMNWYQQKPGQSPRLLIYAASDRESGVPDRFSGSGSGTDFTLKISRVEEEDAGTYYCQQSREDPFTFGQGTKVDIKRTVAAPSVFIFPPSDEQLKSGTASVVCLLNNFYPREAKVQWKVDNALQSGNSQESVTEQDSKDSTYSLSSTLTLSKADYEKHKVYACEVTHQGLSSPVTKSFNRGEC
2h
  DAR value: A (A: 3.5-4.5)
8h
  DAR value: A (A: 3.5-4.5)
1d
  DAR value: A (A: 3.5-4.5)
4d
  DAR value: A (A: 3.5-4.5)
7d
  DAR value: A (A: 3.5-4.5)

B2: ADC-2D-1 (conjugate)
heavy: B1 heavy
light: B1 light
2h
  DAR value: A (A: 3.5-4.5)
8h
  DAR value: B (B: 2.5-3.5)
1d
  DAR value: B (B: 2.5-3.5)
4d
  DAR value: C (C: < 2.5)
7d
  DAR value: C (C: < 2.5)
